Paper PMC8802890, “Identification of U937^JAK3-M511I Acute Myeloid Leukemia Cells as a Sensitive Model to JAK3 Inhibitor” (Frontiers in Oncology, 2022)

Protein sequences, listed by entry. Tags and fused reporters are not part of them. Lines headed by an entry give the natural chain unless they say otherwise; changes in a name come on top.
UniProt O60674: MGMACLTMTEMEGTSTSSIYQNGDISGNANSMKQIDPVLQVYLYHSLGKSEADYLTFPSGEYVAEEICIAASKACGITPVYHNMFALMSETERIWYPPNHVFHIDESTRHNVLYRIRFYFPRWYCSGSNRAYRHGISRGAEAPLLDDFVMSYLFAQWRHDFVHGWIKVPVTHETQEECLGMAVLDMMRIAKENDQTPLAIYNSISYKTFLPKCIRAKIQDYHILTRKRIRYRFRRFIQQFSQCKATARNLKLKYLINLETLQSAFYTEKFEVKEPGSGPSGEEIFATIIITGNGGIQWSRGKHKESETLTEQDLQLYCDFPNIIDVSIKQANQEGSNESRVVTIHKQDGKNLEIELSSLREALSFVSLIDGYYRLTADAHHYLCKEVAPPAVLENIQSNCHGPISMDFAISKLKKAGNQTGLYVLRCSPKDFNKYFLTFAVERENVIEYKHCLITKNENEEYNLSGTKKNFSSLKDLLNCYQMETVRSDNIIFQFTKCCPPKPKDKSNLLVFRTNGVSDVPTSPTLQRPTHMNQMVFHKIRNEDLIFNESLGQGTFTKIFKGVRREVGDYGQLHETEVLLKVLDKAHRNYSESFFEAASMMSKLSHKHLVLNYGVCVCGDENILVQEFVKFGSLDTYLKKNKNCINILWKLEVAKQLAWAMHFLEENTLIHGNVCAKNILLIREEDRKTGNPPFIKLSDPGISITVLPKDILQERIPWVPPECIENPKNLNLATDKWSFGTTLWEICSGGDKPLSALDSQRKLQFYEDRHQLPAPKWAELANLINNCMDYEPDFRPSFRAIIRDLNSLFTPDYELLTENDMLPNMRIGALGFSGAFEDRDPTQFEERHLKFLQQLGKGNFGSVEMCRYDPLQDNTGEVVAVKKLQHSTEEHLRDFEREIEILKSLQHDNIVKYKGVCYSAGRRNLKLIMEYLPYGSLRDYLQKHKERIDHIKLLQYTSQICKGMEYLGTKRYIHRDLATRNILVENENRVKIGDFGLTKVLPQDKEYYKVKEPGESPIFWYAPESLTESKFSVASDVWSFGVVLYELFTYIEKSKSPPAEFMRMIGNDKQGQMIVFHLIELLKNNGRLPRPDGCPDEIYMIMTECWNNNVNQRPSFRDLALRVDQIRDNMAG

Target: T1, JAK2 (Homo sapiens, UniProt O60674)
T1 construct: purchased Invitrogen (Waltham, MA, USA)
Assay: Z'-Lyte kinase assay, JAK2
Format: biochemical

Row | SMILES | IC50 [nM] | potency against JAK2 less than against JAK3
1 | CCS(=O)(=O)N1CC(CC#N)(n2cc(-c3ncnc4[nH]ccc34)cn2)C1 [Baricitinib] | 8.6 ± 2.3 | 
2 | C=CC(=O)N1C[C@H](Nc2ncnc3[nH]ccc23)CC[C@@H]1C [PF-06651600, ritlecitinib] |  | ~5,700 fold
